According to patent US20240050447A1, “ABIRATERONE PRODRUGS” (Propella Therapeutics, Inc., priority 2020, published 2024):

Test: Single-dose bioavailability study of abiraterone propionate and decanoate, IV and IM, Beagle dogs (Example 5B)
Conditions: for AUC0-28 / AUCINF / AUClast / CL/F / Cmax / Tmax / t1/2: plasma analyte = label, mean
[1] = dogs (N = 3), Group 3: IM abiraterone propionate 197 mg/mL in 90% castor oil/10% benzyl alcohol, 41 mg/kg (table title prints 50 mg/kg)
[2] = dogs (N = 3), Group 4: IM abiraterone propionate 168 mg/mL in 90% corn oil/10% benzyl alcohol, 41 mg/kg (table title prints 50 mg/kg)
[3] = dogs (N = 6), IV 1 mg/kg abiraterone propionate (0.57 mg/mL in 40% HP-b-CD)

Question: For Abiraterone propionate, which AUC0-28 [1] is on record?
Answer: 15.7 ng·days/mL

Question: What about the AUCINF [1] of the same substance?
Answer: 14.9 ng·days/mL

Question: And the AUClast [1]?
Answer: 13.0 ng·days/mL

Question: And the CL/F [1]?
Answer: 1980 mL/min/kg

Question: And the Cmax [1]?
Answer: 7.15 ng/mL

Question: What about the Tmax [1] of the same substance?
Answer: 2.66 h

Question: And the t1/2 [1]?
Answer: 41 h

Question: And the AUC0-28 [2]?
Answer: 28.6 ng·days/mL

Question: And the AUCINF [2]?
Answer: 29.0 ng·days/mL

Question: And the AUClast [2]?
Answer: 28.0 ng·days/mL

Question: And the CL/F [2]?
Answer: 1000 mL/min/kg

Question: And the Cmax [2]?
Answer: 31.6 ng/mL

Question: And the Tmax [2]?
Answer: 2.5 h

Question: And the t1/2 [2]?
Answer: 23.6 h

Question: What about the Cmax [3] of the same substance?
Answer: 27.1 ng/mL

Question: And the Tmax [3]?
Answer: 0.0833 h

Question: What about the “abiraterone Cmax, IV abiraterone propionate versus IV abiraterone decanoate” value (dogs, IV 1 mg/kg propionate vs […] decanoate) of the same substance?
Answer: ~4 fold
